In ChEMBL document CHEMBL1134592, “Design and synthesis of matrix metalloproteinase inhibitors guided by molecular modeling. Picking the S(1) pocket using conformationally constrained inhibitors” (J Med Chem, 2001) one finds IC50 data, which are given here for one compound.

The IC50 is the concentration needed to halve the response being measured. Lower therefore signals higher potency.

The target in this test is T1, Interstitial collagenase (Homo sapiens, UniProt P03956).
T1 sequence (P03956 whole entry): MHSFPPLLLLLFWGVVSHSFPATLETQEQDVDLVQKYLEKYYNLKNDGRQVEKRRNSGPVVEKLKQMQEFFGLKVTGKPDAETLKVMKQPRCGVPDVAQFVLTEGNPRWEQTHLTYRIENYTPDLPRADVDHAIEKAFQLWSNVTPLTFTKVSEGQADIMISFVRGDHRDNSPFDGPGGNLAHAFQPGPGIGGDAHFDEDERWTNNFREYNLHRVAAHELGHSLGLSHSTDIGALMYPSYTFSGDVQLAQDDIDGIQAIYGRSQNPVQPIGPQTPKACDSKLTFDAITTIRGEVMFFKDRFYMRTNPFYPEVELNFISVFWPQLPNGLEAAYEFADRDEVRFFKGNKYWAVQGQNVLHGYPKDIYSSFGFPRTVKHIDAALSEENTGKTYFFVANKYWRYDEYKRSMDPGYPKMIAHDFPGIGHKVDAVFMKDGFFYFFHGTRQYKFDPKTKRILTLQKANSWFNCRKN
Kind of test: Inhibition of human matrix metalloprotease-1.

`COc1ccc(S(=O)(=O)N2CC(C)(C)C(CSCc3ccccc3)[C@@H]2C(=O)NO)cc1` (stereo partly specified): half-maximal inhibition (IC50) required 198 nM.
